# Measured affinities in a library of Ab-14 light chain variants

Binding partner: SARS-CoV-2 spike HR2 peptide, sequence PDVDLGDISGINAS.

Parent: Ab-14, a human scFv built as VH, a 15-residue (Gly4Ser)3 linker, VL. Only the CDRs of the light chain vary.
VH: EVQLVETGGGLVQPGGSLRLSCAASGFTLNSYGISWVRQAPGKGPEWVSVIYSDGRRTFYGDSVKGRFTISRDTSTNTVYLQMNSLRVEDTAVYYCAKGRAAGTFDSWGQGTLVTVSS
VL: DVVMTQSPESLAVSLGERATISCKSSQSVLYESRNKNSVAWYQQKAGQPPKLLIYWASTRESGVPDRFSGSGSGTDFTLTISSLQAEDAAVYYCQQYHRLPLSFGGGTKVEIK

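These sequences belong to a second round, designed from the earlier measurements on random variants of the parent. Several design methods are mixed in this list. The assay is AlphaSeq: two haploid yeast populations carry antibody and antigen on their surface. Binding brings cells together so that they mate, and sequencing counts the barcode pairs among the diploids. Each replicate has its own calibration line, from reference interactions of the BCL2 family. Each pool was mated in six replicate cultures.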

Variants are written as CDR1, CDR2 and CDR3 of the light chain (limits as in the source). Parent: KSSQSVLYESRNKNSVA, WASTRES, QQYHRLPLS.
Variants here have more than six changes.
Values are apparent Kd, the geometric mean of the replicates that gave a signal; lower means stronger binding.
A pair that was not seen in any replicate is written "nd"; this usually means weak binding, but a binder can also be missed.
Order: sorted from the lowest average up, undetected variants last.
As a blank, each scFv also met three strains without target: over all light chain designs, 4% of these pairings were detected, typically at 430 nM and seldom below 38 nM.
The authors' rule: three or more of the six replicates give a measured affinity, fewer mean a poor binder.
The range of this assay differs from that of the first round, and the authors advise against merging the two.
The parent sequence was in this pool as ten entries: three were never detected, three once, and four in most replicates, with averages from 2.2 nM to 240 nM.

Variant KFSQSDDYEDRNKNSVA / EGSTRSS / QQYHRLPLS showed 1.0 nM (6 of 6 replicates).
Variant MISQSFLIGSHAKNSVA / QTSTRES / QQYDRLPLS showed 1.1 nM (6 of 6 replicates).
Variant KMSQSVWYEQRNFNSVA / NGSTRFS / QQYHRLPLS showed 1.1 nM (6 of 6 replicates).
Variant KVSPSQEYESRNKQSVA / HASLREE / QQYHRLPLS showed 1.1 nM (6 of 6 replicates).
Variant KARQSNLYEDRNQNSVA / SASQRLS / QQYHRLPLS showed 1.3 nM (6 of 6 replicates).
Variant KFDQEWWYESRNKNSVA / MASQRCS / QQYHRLPLS showed 1.7 nM (6 of 6 replicates).
Variant KFMGSDEYQMQEQGNVA / QTEQKCK / QQYFRLPLT showed 1.7 nM (6 of 6 replicates).
Variant KLPHLSFVHDREKNNVA / DLNVKCS / QQYDRLPLV showed 1.8 nM (6 of 6 replicates).
Variant KIGGVTNGISRSKNSVA / EQSTRED / QQYDRLPLS showed 1.9 nM (6 of 6 replicates).
Variant KLYQATAMTSQMRNNVA / DLNERER / QQYFRLPLS showed 2.1 nM (6 of 6 replicates).
Variant NLNTYYEGGFLNTDNIA / HGNMVEA / QQYYRLPLS showed 2.4 nM (6 of 6 replicates).
Variant KMQQSGLMESRNVNSVA / HASTRLE / QQYHRLPLS showed 2.5 nM (6 of 6 replicates).
Variant KITDDFLTEGNGRQNIA / HNNVALD / QQYQQLPLA showed 2.9 nM (6 of 6 replicates).
Variant MVYQAAMMGTSTRNNIA / NAEMRPD / QQYHRLPLE showed 3.0 nM (6 of 6 replicates).
Variant KLSPSVNGESRNKNSVA / EASTREQ / QDYHRLPLS showed 3.4 nM (6 of 6 replicates).
Variant SLTIYQDENGLKHQSIA / GAGLRML / QQYHRLPLT showed 4.4 nM (6 of 6 replicates).
Variant KQSQSFLYESRNSNSVA / NASQREE / QQYHRLPLM showed 4.4 nM (6 of 6 replicates).
Variant TISTSMRYESSLKNAIA / NAETRES / QQYHRLPIS showed 4.4 nM (6 of 6 replicates).
Variant MFSQGVMVGWLTRNSVA / NSSTRED / QQYHRLPLS showed 7.1 nM (6 of 6 replicates).
Variant KMSQSVLMGGRNDNSVA / MASTRCS / QQYHRLPLS showed 7.5 nM (6 of 6 replicates).
Variant RLSTEHTGYGEMMNNIA / QGSTKQF / QQYDRLPLH showed 7.5 nM (6 of 6 replicates).
Variant NISIKEPGNWKMMDSVA / HSSLRAE / QQYWRLPLM showed 8.3 nM (6 of 6 replicates).
Variant KLQWQQYGENQQEAAIA / NETTVAQ / QQYFKLPLT showed 8.4 nM (6 of 6 replicates).
Variant HISQMVSYGSCMKNNVA / QVSTREE / QQYHRLPLS showed 8.6 nM (6 of 6 replicates).
Variant KVMQSKLQGQRNKNSVA / EASTRER / QQYHRLPLS showed 10 nM (6 of 6 replicates).
Variant KLSMTMELEHVSRNSVA / ELVTRMS / QQYNRLPLS showed 10 nM (6 of 6 replicates).
Variant KLQWQQYGENAQEAAIA / NEQTVAQ / QQYSKLPLT showed 11 nM (4 of 6 replicates).
Variant TISQLMNMGQFAINSVA / QATIRNA / QQYDRLPLI showed 11 nM (6 of 6 replicates).
Variant KLRQVTGYESYLRNSVA / QTSTRAE / QDYHRLPLS showed 12 nM (6 of 6 replicates).
Variant HITDLMYNNNEGMQSIA / DKAISVN / QQYFRLPLD showed 12 nM (6 of 6 replicates).
Variant MMSQVTGMGQRHRNNVA / QTSTREP / QQYDRLPLI showed 14 nM (6 of 6 replicates).
Variant RLLGQNLQNMDKLNSIA / EQSVHYQ / QQYGRLPLT showed 17 nM (6 of 6 replicates).
Variant QLYAVNDLTSKNSNNVA / EQTTREN / QQYHRLPLS showed 17 nM (6 of 6 replicates).
Variant KLDSAEQHGTNQNSAMA / SASVSTQ / QQYSRLPLS showed 24 nM (5 of 6 replicates).
Variant KLSWKSLGFETRWMAIA / NTKERNA / QQYARLPLS showed 28 nM (5 of 6 replicates).
Variant KLSQVTHSESRNKNSIA / EMVTREA / QQYDRLPLS showed 34 nM (5 of 6 replicates).
Variant KLTISGLHQSIDKKSIA / ERSTREN / QQYHRLPLS showed 36 nM (5 of 6 replicates).
Variant MISQLMNMGTFAINSVA / QAEIRNA / QQYDRLPLQ showed 36 nM (6 of 6 replicates).
Variant RISMNFTWPGNARQNVA / EIQKAID / QQYAHLPLS showed 37 nM (6 of 6 replicates).
Variant KLIQSVAMSSRNKDSIA / DNSTREY / QQYDRLPLS showed 41 nM (6 of 6 replicates).
Variant SLRDKIVGGDKYRNAIA / GRQVRAK / QQYHRLPLS showed 64 nM (6 of 6 replicates).
Variant TLYGLTNSMSKNKDNVA / EMSTREQ / QQYDRLPLA showed 67 nM (4 of 6 replicates).
Variant KLRQVTEYESFNKNSVA / QTETRES / QDYDRLPLS showed 97 nM (3 of 6 replicates).
Variant HLGLVTMSEQAVRNSVA / NNSTREE / QQYDRLPLS showed 130 nM (4 of 6 replicates).
Variant HLSHMTGVESVKHNSVA / ENSTRAN / QQYDRLPLA showed 140 nM (1 of 6 replicates).
Variant KLSISYLFESQQKNSIA / ENSTRES / QHYHRLPLS showed 470 nM (2 of 6 replicates).
Variant KRSSSSLYESKDKNSVA / WDSTRES / QQHHRLPLS showed nd (0 of 6 replicates).
Variant IVSQLMLWGMKARNSIA / EAVTRLN / QQYDRLPLI showed nd (0 of 6 replicates).
Variant LIETLSQGMRDNWSAVA / EAHMLVQ / QHYARLPLS showed nd (0 of 6 replicates).

Top 5 of the variants detected in all replicates, tightest first:

CDR-L1,CDR-L2,CDR-L3,Kd,seen in
KFSQSDDYEDRNKNSVA,EGSTRSS,QQYHRLPLS,1.0 nM,6 of 6
MISQSFLIGSHAKNSVA,QTSTRES,QQYDRLPLS,1.1 nM,6 of 6
KMSQSVWYEQRNFNSVA,NGSTRFS,QQYHRLPLS,1.1 nM,6 of 6
KVSPSQEYESRNKQSVA,HASLREE,QQYHRLPLS,1.1 nM,6 of 6
KARQSNLYEDRNQNSVA,SASQRLS,QQYHRLPLS,1.3 nM,6 of 6

The measurements come from Li et al. 2023 (doi:10.1038/s41467-023-39022-2) through the FLAb antibody collection.